Data: patent US8440701B2, “Trisubstituted 1,2,4 triazoles” (Janssen Pharmaceutica NV, priority 2007, dated 2013)

Protein sequences, listed by entry. Tags and fused reporters are not part of them. Residues count along the entry.
UniProt P36544, 23-502 limits assumed: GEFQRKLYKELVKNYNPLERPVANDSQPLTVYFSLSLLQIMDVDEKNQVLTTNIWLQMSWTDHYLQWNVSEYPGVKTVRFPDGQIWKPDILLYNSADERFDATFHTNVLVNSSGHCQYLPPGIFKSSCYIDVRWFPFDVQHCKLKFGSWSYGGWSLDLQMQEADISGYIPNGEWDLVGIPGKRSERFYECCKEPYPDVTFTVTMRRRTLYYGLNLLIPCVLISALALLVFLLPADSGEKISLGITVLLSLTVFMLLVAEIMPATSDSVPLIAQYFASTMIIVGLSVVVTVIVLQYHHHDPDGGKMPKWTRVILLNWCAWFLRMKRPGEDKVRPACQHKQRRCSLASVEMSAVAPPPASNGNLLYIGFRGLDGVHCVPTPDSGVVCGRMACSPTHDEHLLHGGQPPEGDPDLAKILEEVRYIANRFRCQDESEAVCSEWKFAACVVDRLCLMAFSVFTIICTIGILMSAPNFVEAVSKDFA

Experiments:
hα7-wt nAChR [1] = target: T1, hα7-wt nAChR (Homo sapiens, UniProt P36544); assay: Ca2+ flux imaging (FDSS), potentiation of choline response; conditions: for pEC50: hα7-wt nAChR-expressing GH4C1 cells, potentiation of 100 μM choline, compounds 0.01 μM to 30 μM; for % Efficacy: maximal effect, efficacy of 100 μM choline defined as 100% in the absence of a PAM, GH4C1 cells
Experimental: Ca^2+ Flux Imaging (FDSS)
• Hanks buffered saline solution (HBSS, Invitrogen, Belgium), supplemented with 10 mM HEPES (Invitrogen, Belgium), CaCl2 to a final concentration of 5 mM, 0.1% Bovine serum albumin (Sigma-Aldrich NV, Belgium). b) Calcium-Sensitive Dye—Fluo-4AM • Fluo-4AM (Molecular Probes, USA) was dissolved in DMSO containing 10% Pluronic acid (Molecular Probes, USA) to give a stock solution which was diluted in assay buffer supplemented with 5 mM probenicid (Sigma, Aldrich NV, Belgium) to give a final concentration of 2 μM. c) 384-Well Plates • Black 384 well plate black/clear plates, PDL pre-coated (Corning, Incorporated, USA) d) Calcium Flux Measurement • A Functional drug screening system (FDSS, Hamamatsu) was used to measure intracellular free-calcium flux signals. Method
Monolayers of hα7-wt nAChR-expressing GH4C1 cells were grown in multi-well plates, in particular black-sided, transparent bottomed 384 well plates coated with poly-D-lysine for 24 hours prior to loading with a fluorescent calcium indicator, in a particular embodiment loading with fluo-4AM for up to 120 minutes.
PAM activity was detected in real time by applying the compound to be tested to the loaded cells along with a α7 nicotinic receptor agonist during constant monitoring of the cellular calcium mobilization by fluorescence in a FDSS. Compounds giving peak fluorescent responses greater than the response due to agonist alone, were considered to be α7 nAChR PAM's. In a particular embodiment, the α7 nicotinic receptor agonist was choline, a more particular embodiment choline applied at a sub-maximal concentration of 100 μM. In a further setting of the present invention the compounds to be tested were applied prior to the α7 nicotinic receptor agonist, in a particular embodiment up to 10 minutes prior to the agonist.
A control response to choline was calculated on each plate from the difference in peak in fluorescence in wells receiving either choline or assay buffer alone. Compounds of the present invention were tested at a concentration range from 0.01 μM to 30 μM. Compounds were considered to have an interesting activity when they potentiated the choline signal at least with 200% when tested at a concentration of 30 μM (the efficacy of 100 μM choline was defined as 100% in the absence of a PAM).
EC50 values (potency), maximal effect (% efficacy), and Hill slopes were estimated by fitting the sigmoidal equation to the data using GraphPad Prism (GraphPad Software, Inc., San Diego, Calif.). An EC50 (or pEC50) was determined as a concentration relating to half the maximal effect, when a clear sigmoidal curve with top plateau was obtained.

hα7-wt nAChR [2] = target: T1, hα7-wt nAChR; assay: Whole-cell voltage-clamp recording, PAM type classification; conditions: qualitative kinetic properties; 1 mM choline; hα7-wt nAChR-expressing GH4C1 cells
Experimental: The compounds of the present invention are classified as type 1-4, based on qualitative kinetic properties, as determined by whole-cell voltage-clamp recordings. This classification is based on the effect of an α7 PAM compound, as described hereinbefore, on the signal elicited by an agonist application. In particular, said agonist is choline at a concentration of 1 mM. In a preferred experimental setting, said α7 PAM compound and choline are simultaneously applied to the cell, as described hereinafter. Desensitization is defined as the closure of the receptor upon activation during the application of the agonist in whole-cell voltage-clamp electrophysiology measurements seen as the reduction of the […] current after initial activation by the agonist.
The definition of the PAM types 1-4 is described hereinafter: • Type 1 compounds enhance the effect size of the current elicited by 1 mM choline but minimally alter the kinetics of the receptor. In particular, the rate and the extent of desensitization, elicited by the agonist, is not affected. The compound-modulated response to 1 mM choline, therefore, is a close to linear scaling of the 1 mM choline response in absence of the α7 PAM compound. • Type 2 compounds enhance the effect size of the current elicited by 1 mM choline while reducing the rate and/or the extent of desensitization. • Type 3 compounds enhance the effect size of the current elicited by 1 mM choline. […] At low-potency concentrations of the α7 PAM compound, the agonist-induced activation, which is followed by desensitization, can still be separated from the compound-induced re-opening as an initial inward current-maximum. At higher potency concentrations of the α7 PAM compound, the re-opening occurs faster than the closure due to desensitization so that the initial current-maximum disappears.
The compounds of the present invention also have a potentiating effect on the response to choline when measured by whole-cell voltage-clamp electrophysiology in GH4C1 cells stably over-expressing the human wild-type α7 receptor, as described hereinafter. […]

| SMILES | pEC50 (hα7-wt nAChR [1]) | % Efficacy (hα7-wt nAChR [1]) | PAM_type (hα7-wt nAChR [2]) |
| --- | --- | --- | --- |
| CCCCC(O)Cn1nc(Nc2ccc(F)c(F)c2)nc1-c1ccnc(C)c1 (single isomer, unassigned) [E11] | 6.45 | 1150% | 1 |
| CCCCC(O)Cn1nc(Nc2ccc(F)c(F)c2)nc1-c1ccnc(C)c1 (single isomer, unassigned) [E12] | 6.58 |  | 2 |
| CC[C@@H](O)Cn1nc(Nc2ccc(F)c(F)c2)nc1-c1cc(C)nc(C)c1 | 6.00 | 1270% | 2 |
